Values quoted from earlier work as cited in patent publication US7432414B2, “Transgenic mouse having an amyloid precursor protein with a modified beta secretase cleavage site” (Merck & Co., Inc., priority 2004, dated 2008).

Protein sequences, listed by entry. Tags and fused reporters are not part of them. Residues count along the entry.
UniProt P56817, 46-501: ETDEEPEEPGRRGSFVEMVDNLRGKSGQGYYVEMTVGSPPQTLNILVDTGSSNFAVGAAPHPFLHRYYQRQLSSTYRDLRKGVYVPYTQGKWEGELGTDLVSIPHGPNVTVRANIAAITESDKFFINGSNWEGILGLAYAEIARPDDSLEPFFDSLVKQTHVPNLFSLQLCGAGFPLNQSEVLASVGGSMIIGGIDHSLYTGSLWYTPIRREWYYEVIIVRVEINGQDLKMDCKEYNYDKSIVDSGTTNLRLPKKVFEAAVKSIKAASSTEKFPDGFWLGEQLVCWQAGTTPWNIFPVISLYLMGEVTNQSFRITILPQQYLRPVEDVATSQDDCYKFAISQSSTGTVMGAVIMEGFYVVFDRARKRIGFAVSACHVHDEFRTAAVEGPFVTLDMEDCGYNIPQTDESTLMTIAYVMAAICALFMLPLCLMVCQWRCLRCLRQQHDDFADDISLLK

Target: T1, recombinant β secretase produced in E. coli (Homo sapiens, UniProt P56817)
T1 construct: host or cells: E. coli
Settings: Ghosh et al., 2000, J. Am. Chem. Soc. 122:3522-3523, read-out: Ki towards recombinant β secretase

VNLAAEF [OM99-1]
Ki: ~68 nM
